Literature values as cited in patent US20180161400A1, “ANTIDIABETIC ORAL INSULIN BIGUANIDE COMBINATION” (Emisphere Technologies, Inc., priority 2004, published 2018).

Tested on: people with Type 2 diabetes
Details: UKPDS intensive therapy; cited from earlier work

## insulin
  average weight gain: 4 kg
